Assay [1] can be described thus: total CFTR protein upregulators, primary screen, cell-based, HeLa F508del-CFTR, immunofluorescence, viability (AID 1224863).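 As to fold increase: total CFTR protein by anti-CFTR immunofluorescence in fixed cells.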 Particulars: 24 h, stronger effect = higher value; min viability: measured here: HeLa viability, alamarBlue, dose 20, library dosed in µg/mL unless noted; viability: measured here: primary viability 10 ug/mL, library dosed in µg/mL unless noted. (Alamar Blue is a resazurin reagent that responds to reducing activity.)

Protein sequences, listed by entry. Tags and fused reporters are not part of them. Chains listed by the source or under a name are the forms on record and can include a tag or linker.
UniProt P13569, with tags, fused parts or gaps F508del: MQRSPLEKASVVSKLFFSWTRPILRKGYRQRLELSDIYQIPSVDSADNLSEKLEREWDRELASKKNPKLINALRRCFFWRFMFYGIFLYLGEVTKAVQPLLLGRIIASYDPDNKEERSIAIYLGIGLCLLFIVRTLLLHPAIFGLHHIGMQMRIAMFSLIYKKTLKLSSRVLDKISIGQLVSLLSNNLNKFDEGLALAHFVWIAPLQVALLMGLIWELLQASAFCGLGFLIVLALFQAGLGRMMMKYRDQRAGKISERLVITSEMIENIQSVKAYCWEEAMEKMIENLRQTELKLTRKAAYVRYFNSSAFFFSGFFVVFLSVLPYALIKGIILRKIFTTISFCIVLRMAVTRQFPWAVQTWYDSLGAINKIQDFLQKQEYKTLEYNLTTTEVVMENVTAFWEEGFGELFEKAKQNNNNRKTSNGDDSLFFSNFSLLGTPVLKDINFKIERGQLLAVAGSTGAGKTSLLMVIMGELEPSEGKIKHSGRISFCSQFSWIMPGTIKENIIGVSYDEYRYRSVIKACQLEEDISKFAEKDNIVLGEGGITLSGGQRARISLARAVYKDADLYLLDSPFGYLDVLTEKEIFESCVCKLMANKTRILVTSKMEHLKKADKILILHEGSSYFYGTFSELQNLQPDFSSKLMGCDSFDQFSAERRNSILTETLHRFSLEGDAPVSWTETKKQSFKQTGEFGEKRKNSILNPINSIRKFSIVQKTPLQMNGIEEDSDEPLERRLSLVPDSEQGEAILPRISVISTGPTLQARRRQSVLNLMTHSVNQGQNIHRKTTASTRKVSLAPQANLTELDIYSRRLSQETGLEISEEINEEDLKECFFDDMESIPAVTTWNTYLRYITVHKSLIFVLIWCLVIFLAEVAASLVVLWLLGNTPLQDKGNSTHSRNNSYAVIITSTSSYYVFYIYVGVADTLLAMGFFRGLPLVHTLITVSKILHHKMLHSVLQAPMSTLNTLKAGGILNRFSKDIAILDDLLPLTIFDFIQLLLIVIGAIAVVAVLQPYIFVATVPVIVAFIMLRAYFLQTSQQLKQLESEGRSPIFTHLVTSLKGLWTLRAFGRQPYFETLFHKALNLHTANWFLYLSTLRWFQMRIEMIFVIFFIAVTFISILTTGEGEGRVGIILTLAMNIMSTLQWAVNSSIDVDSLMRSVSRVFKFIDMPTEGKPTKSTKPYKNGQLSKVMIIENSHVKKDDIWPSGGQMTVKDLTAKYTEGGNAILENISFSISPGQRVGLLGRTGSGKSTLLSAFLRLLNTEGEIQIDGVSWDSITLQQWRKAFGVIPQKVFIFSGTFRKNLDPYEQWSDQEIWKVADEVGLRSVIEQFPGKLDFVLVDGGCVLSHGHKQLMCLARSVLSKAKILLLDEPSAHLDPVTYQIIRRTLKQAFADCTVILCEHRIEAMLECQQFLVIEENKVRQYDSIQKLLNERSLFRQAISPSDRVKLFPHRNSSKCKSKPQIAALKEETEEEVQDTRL

For assay [2], the target named is Cystic fibrosis transmembrane conductance regulator (Homo sapiens) (UniProt P13569). The assay is described as above. Particulars: 24 h; fold increase: measured here: primary screen 10 ug/mL, library dosed in µg/mL, stronger effect = higher value unless noted; max fold increase: dose 10, library dosed in µg/mL, stronger effect = higher value unless noted; outcome: library dosed in µg/mL unless noted.

Screen size: about 10,000 compounds; about 15 (0.1%) were called active.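 The calls were made as follows: active = highest signal at least 8 times the median of untreated cell-only control wells at some dose; inactive = the rest.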 The list is a sample of the results.

What is called viability is a read-out of living cells in per cent, often relative to untreated cells. Consider `Cc1noc2nc(-c3ccco3)cc(C(=O)OCc3cc(=O)n4cc(Cl)ccc4n3)c12`, for which the viability in assay [1] was 101%. Also, in assay [2], the fold increase worked out at 1.11 and the outcome was inactive.

In the case of `CC1(c2ccccc2)NC(=O)N(Cc2cc(=O)n3ccccc3n2)C1=O` (stereo not given), the viability in assay [1] came to 91%. Besides, in assay [2], the fold increase was 1.06 and the outcome was inactive.

On to `Cn1ncc2c(NCC3(N4CCCCC4)CCCCC3)ncnc21`, for which the viability in assay [1] was found to be 96%. In addition, in assay [2], the fold increase was 1.05 and the call was inactive.

On to `CC(C(=O)NC1CCCCCC1)N1CCN(C(C)C(=O)NC2CC2)CC1` (stereo not given), for which the viability in assay [1] was found to be 95%. Moreover, in assay [2], the fold increase was determined as 1.06 and the compound was called inactive.

Turning to `Fc1ccc(-c2[nH]ncc2CNCc2ccccc2Cn2cncn2)cc1`, in assay [1], the viability is 104%. Further, in assay [2], the fold increase was 1.01 and the compound was classed as inactive.

`CC(c1nnc(-c2cccs2)o1)N1CCC(O)CC1` (stereo not given): the viability in assay [1] was 99%. Further, in assay [2], the fold increase is 1.04 and the outcome was inactive.

Regarding `Cn1cc(S(=O)(=O)N2CCN(Cc3nc(N)nc(N)n3)CC2)cc1C(N)=O`, in assay [1], the viability came to 91%. In assay [2], the fold increase was found to be 0.98 and the compound was called inactive.

For `Cn1c(SCc2ccc(-n3cccn3)cc2)nc2ccccc21`, the viability in assay [1] worked out at 92%. For the same compound, in assay [2], the fold increase was 0.97 and the result was inactive.

Regarding `Cc1sc2nc(CN3CCCC3)nc(-n3nnc(-c4cccnc4)n3)c2c1C`, the viability in assay [1] was found to be 84%. In assay [2], the fold increase is 1.04 and the outcome was inactive.

With `Cc1cc(C)cc(-c2nnc(SC3CCCCC3=O)o2)c1` (stereo not given), in assay [1], the viability stood at 112%. In addition, in assay [2], the fold increase amounted to 1.07 and the call was inactive.

Regarding `CC1Oc2ccc(NC(=O)C3=NN(C)C(=O)CC3)cc2NC1=O` (stereo not given), the viability in assay [1] was 100%. Also, in assay [2], the fold increase worked out at 0.99 and the call was inactive.

For `Cc1ccc(C)c(CS(=O)(=O)Cc2ccccc2SC(F)F)c1`, in assay [1], the viability worked out at 86%. For the same compound, in assay [2], the fold increase was found to be 1.03 and the compound was called inactive.

Take `Cc1oc(C)c(C(=O)Nc2ncn[nH]2)c1C`: the viability in assay [1] came out at 86%. For the same compound, in assay [2], the fold increase is 0.86 and the call was inactive.

Turning to `CC1CCC(NC(=O)c2ccc([N+](=O)[O-])s2)CC1` (stereo not given), the viability in assay [1] was determined as 77%. Besides, in assay [2], the fold increase was 0.76 and the call was inactive.

On to `Cc1ccc(-n2nnnc2SCc2cn3cccc(C)c3n2)cc1C`, for which, in assay [1], the viability was found to be 79%. For the same compound, in assay [2], the fold increase came out at 0.98 and the result was inactive.

With `C=CCOc1ccc(/C(O)=C2/C(=O)C(=O)N(CCCN(C)C)C2c2cccc(Br)c2)cc1` (stereo not given), the viability in assay [1] was found to be 91%. In assay [2], the fold increase was 1.07 and the compound was classed as inactive.

In the case of `O=S(=O)(c1ccc2ccccc2c1)N1CCN(S(=O)(=O)c2ccccc2Cl)CC1`, the viability in assay [1] was found to be 94%. Moreover, in assay [2], the fold increase was 1.06 and the compound was called inactive.

For `Clc1ccc(-c2nc(Sc3ccccc3Cl)c3c4c(sc3n2)CCC4)cc1`, the viability in assay [1] is 91%. In assay [2], the fold increase amounted to 1.15 and the outcome was inactive.

Consider `Cc1c(C2Nc3ccccc3C(=O)N2c2ccc3c(c2)OCO3)cc(C#N)n1C` (stereo not given), for which the viability in assay [1] was found to be 100%. In assay [2], the fold increase amounted to 1.05 and the compound was called inactive.

Consider `O=C(O)CN1C(=O)COc2cc(Br)ccc21`, for which the viability in assay [1] worked out at 101%. In addition, in assay [2], the fold increase was 1.01 and the outcome was inactive.

As for `NC1CC(=O)N(c2ccc(Oc3ccccc3)cc2)C1` (stereo not given), the viability in assay [1] was 60%. In assay [2], the fold increase was found to be 0.71 and the result was inactive.

Turning to `Cc1cn2nc(NC3CCCC3)sc2n1`, the viability in assay [1] came to 96%. In assay [2], the fold increase was determined as 0.88 and the call was inactive.

For the compound `COc1cc(OC)c(CNC(C)c2ccc(F)cc2F)c(OC)c1` (stereo not given), in assay [1], the viability worked out at 103%. Further, in assay [2], the fold increase was determined as 1.05 and the compound was called inactive.

For `CSc1ccc(OCC(=O)c2[nH]c(C)c(C(C)=O)c2C)cc1`, in assay [1], the viability was determined as 77%. In addition, in assay [2], the fold increase was 0.86 and the result was inactive.

As for `COCCn1c(SCC(=O)c2[nH]c(C)c(C(C)=O)c2C)nc2sc3c(c2c1=O)CCCC3`, the viability in assay [1] is 102%. Moreover, in assay [2], the fold increase was 1.01 and the result was inactive.

Consider `CCCn1c(N)c(C(=O)CN2CCC(O)CC2)c(=O)[nH]c1=O`, for which the viability in assay [1] was found to be 91%. Besides, in assay [2], the fold increase came out at 1.07 and the compound was called inactive.

Take `COC(=O)c1ccc(C2NC(=O)NC(C)=C2C(=O)c2ccc(Cl)cc2)cc1` (stereo not given): in assay [1], the viability stood at 87%. Further, in assay [2], the fold increase came to 1.02 and the result was inactive.

As to `N#CCCN1CCN(C(=O)C23CC4CC(CC(C4)C2)C3)CC1`, the viability in assay [1] was determined as 86%. In assay [2], the fold increase was found to be 1.05 and the outcome was inactive.

For `Cc1nn(Cc2ccccc2Cl)c(C)c1CN(C)c1ccc2nnnn2n1`, in assay [1], the viability stood at 101%. Further, in assay [2], the fold increase turned out to be 0.94 and the call was inactive.

As for `O=C1c2ccccc2S(=O)(=O)NN1Cc1ccc(Br)cc1`, the viability in assay [1] was 110%. In assay [2], the fold increase was determined as 0.99 and the compound was called inactive.

For the compound `Cc1ccc(-c2nnc(NCCC(C)C)c3ccccc23)cc1C`, the viability in assay [1] is 97%. Besides, in assay [2], the fold increase came out at 0.94 and the outcome was inactive.

Consider `CSc1ncccc1C(=O)NC1CC2CC1C1CCCC21` (stereo not given), for which, in assay [1], the viability came to 103%. For the same compound, in assay [2], the fold increase came to 1.14 and the compound was called inactive.

As to `C=CCNC(=O)NC(=O)CN(Cc1nccn1C(F)F)C1CC1`, in assay [1], the viability was 83%. In assay [2], the fold increase is 1.18 and the outcome was inactive.

Regarding `C=CCn1c(SCC)nnc1-c1ccc([N+](=O)[O-])cc1`, the viability in assay [1] was 88%. In addition, in assay [2], the fold increase is 1.02 and the compound was called inactive.

On to `CC(OC(=O)C1=Cc2ccccc2OC1)C(=O)C12CC3CC(CC(C3)C1)C2` (stereo not given), for which the viability in assay [1] was determined as 91%. For the same compound, in assay [2], the fold increase worked out at 1.1 and the compound was called inactive.

`O=C1C2CCCCC2C(=O)N1CC(O)COCc1ccc2c(c1)OCO2` (stereo not given): the viability in assay [1] amounted to 99%. Also, in assay [2], the fold increase came out at 1.1 and the call was inactive.

In the case of `C=CCNCC(F)(F)F`, the viability in assay [1] amounted to 95%. Moreover, in assay [2], the fold increase was determined as 1.07 and the outcome was inactive.

`O=S(=O)(C1=Cc2ccccc2CC1)N1CCCC1c1ccc(F)cc1` (stereo not given): the viability in assay [1] came to 97%. In assay [2], the fold increase is 0.99 and the compound was classed as inactive.

In the case of `CCCN(CC1CC1)C(=O)CSc1nc(C)nc2sc3c(c12)CCCC3`, the viability in assay [1] came out at 81%. In assay [2], the fold increase is 0.94 and the outcome was inactive.

`CC1CCCN(S(=O)(=O)N2CCC(N3CCCc4ccccc43)CC2)C1` (stereo not given): the viability in assay [1] was 82%. Further, in assay [2], the fold increase was determined as 0.89 and the result was inactive.

Take `O=C(C1CCCO1)N1CCN(Cc2ccc3c(c2)CCO3)CC1` (stereo not given): in assay [1], the viability is 90%. Besides, in assay [2], the fold increase is 1.05 and the call was inactive.

As for `O=c1oc2ccc([N+](=O)[O-])cc2n1CN1CCN(c2cccc(Cl)c2)CC1`, the viability in assay [1] came out at 82%. Moreover, in assay [2], the fold increase came out at 0.77 and the compound was classed as inactive.

As for `Cc1ccc(C2(C)NC(=O)N(Cc3coc(-c4ccc(C)cc4C)n3)C2=O)cc1` (stereo not given), the viability in assay [1] turned out to be 85%. For the same compound, in assay [2], the fold increase is 0.96 and the compound was classed as inactive.

Take `O=S(=O)(Nc1cc2c(cc1Br)OCCO2)c1ccc(Br)cc1`: the viability in assay [1] is 88%. For the same compound, in assay [2], the fold increase was 1.03 and the outcome was inactive.

On to `Cc1cc(C)n2c(SCc3cc(-c4ccccc4)on3)nnc2n1`, for which, in assay [1], the viability worked out at 97%. Besides, in assay [2], the fold increase came to 1.06 and the call was inactive.

Consider `CCCCS(=O)(=O)Nc1ccc(F)c(N)c1`, for which, in assay [1], the viability was 102%. Besides, in assay [2], the fold increase was determined as 0.96 and the result was inactive.

In the case of `O=C(CNC(=O)c1ccco1)NC1CCC2CCCCC2C1` (stereo not given), in assay [1], the viability was found to be 75%. In assay [2], the fold increase came out at 1.02 and the compound was called inactive.

With `Cc1cc(C(=O)CSc2nnc(-c3ccoc3C)o2)c(C)s1`, the viability in assay [1] came out at 84%. Moreover, in assay [2], the fold increase turned out to be 0.89 and the outcome was inactive.

Turning to `O=C(CSc1nnnn1C1CC1)NC(c1cccs1)C1CCCC1` (stereo not given), the viability in assay [1] is 90%. Further, in assay [2], the fold increase was 0.94 and the call was inactive.

Turning to `CCOC(=O)c1oc2ccccc2c1COC(=O)c1ccc2c(c1)CCC(=O)N2`, the viability in assay [1] turned out to be 81%. In assay [2], the fold increase came to 1 and the result was inactive.

`CCn1cnnc1SCCCCN1C(=O)c2ccccc2C1=O`: in assay [1], the viability is 106%. Moreover, in assay [2], the fold increase was 1.03 and the compound was called inactive.

As for `CC(=O)N1C=Cc2ccccc2C1CC(=O)Nc1cc2c(cc1Cl)OCO2` (stereo not given), the viability in assay [1] was 89%. In assay [2], the fold increase worked out at 0.97 and the result was inactive.

On to `O=S(=O)(Cc1ccc(F)cc1Cl)C12CC3CC(CC(C3)C1)C2`, for which, in assay [1], the viability is 104%. In assay [2], the fold increase stood at 1.1 and the outcome was inactive.

Regarding `CCOCCCNc1nnc(SC(C(=O)NC(N)=O)C(C)C)s1` (stereo not given), in assay [1], the viability worked out at 97%. In assay [2], the fold increase came out at 0.95 and the compound was classed as inactive.

For the compound `Cc1nc(CNC(C(=O)O)C(C)C)cs1` (stereo not given), the viability in assay [1] stood at 88%. Besides, in assay [2], the fold increase amounted to 1.06 and the result was inactive.

These data come from PubChem BioAssay AID1224863 (Southern Research Institute, 2016).
